Amino acid sequences for entries named in this document (tags omitted).
UniProt P33535, whole entry, looked up: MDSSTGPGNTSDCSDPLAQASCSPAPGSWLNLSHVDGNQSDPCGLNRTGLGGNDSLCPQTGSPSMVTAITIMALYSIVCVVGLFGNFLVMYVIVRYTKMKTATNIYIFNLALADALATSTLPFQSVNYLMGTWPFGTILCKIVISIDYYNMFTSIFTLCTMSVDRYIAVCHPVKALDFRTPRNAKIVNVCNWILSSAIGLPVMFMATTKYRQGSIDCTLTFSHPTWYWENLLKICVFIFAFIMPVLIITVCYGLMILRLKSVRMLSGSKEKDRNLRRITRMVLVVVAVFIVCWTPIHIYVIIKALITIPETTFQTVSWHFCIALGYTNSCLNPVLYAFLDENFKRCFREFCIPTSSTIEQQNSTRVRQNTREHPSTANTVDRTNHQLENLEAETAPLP
UniProt P32300, whole entry, looked up: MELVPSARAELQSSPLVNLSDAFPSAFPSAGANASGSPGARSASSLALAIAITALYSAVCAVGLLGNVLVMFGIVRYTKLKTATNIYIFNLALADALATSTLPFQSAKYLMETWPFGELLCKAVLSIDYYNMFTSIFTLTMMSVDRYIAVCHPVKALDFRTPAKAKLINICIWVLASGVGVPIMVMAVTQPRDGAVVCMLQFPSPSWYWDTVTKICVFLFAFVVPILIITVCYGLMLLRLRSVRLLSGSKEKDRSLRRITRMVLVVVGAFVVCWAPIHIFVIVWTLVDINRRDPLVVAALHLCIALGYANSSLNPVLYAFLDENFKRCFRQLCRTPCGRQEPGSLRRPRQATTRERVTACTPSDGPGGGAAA

In BindingDB's records for 19147366:

Key:
[1] = target: Mu-type opioid receptor (Rattus norvegicus, UniProt P33535); assay: Binding affinity to rat MOPR expressed in CHO cells
[2] = target: Delta-type opioid receptor (Mus musculus, UniProt P32300); assay: Binding affinity to mouse DOPR expressed in CHO cells

**Q.** How did the Ki [1] turn out when `CN(C(=O)Cc1ccc(Cl)c(Cl)c1)[C@@H]1CCCC[C@H]1N1CCCC1` was run?
**A.** The Ki was > 1000 nM.

**Q.** And the Ki [2]?
**A.** The Ki was > 1000 nM.
